This note sets out measurements from patent US9067935B2 (Janssen Pharmaceutica, NV, priority 2010, dated 2015).

By UniProt entry, the sequences of proteins in these tests, tags left out. Residues count along the entry.
UniProt Q1A7N1, 1-1104: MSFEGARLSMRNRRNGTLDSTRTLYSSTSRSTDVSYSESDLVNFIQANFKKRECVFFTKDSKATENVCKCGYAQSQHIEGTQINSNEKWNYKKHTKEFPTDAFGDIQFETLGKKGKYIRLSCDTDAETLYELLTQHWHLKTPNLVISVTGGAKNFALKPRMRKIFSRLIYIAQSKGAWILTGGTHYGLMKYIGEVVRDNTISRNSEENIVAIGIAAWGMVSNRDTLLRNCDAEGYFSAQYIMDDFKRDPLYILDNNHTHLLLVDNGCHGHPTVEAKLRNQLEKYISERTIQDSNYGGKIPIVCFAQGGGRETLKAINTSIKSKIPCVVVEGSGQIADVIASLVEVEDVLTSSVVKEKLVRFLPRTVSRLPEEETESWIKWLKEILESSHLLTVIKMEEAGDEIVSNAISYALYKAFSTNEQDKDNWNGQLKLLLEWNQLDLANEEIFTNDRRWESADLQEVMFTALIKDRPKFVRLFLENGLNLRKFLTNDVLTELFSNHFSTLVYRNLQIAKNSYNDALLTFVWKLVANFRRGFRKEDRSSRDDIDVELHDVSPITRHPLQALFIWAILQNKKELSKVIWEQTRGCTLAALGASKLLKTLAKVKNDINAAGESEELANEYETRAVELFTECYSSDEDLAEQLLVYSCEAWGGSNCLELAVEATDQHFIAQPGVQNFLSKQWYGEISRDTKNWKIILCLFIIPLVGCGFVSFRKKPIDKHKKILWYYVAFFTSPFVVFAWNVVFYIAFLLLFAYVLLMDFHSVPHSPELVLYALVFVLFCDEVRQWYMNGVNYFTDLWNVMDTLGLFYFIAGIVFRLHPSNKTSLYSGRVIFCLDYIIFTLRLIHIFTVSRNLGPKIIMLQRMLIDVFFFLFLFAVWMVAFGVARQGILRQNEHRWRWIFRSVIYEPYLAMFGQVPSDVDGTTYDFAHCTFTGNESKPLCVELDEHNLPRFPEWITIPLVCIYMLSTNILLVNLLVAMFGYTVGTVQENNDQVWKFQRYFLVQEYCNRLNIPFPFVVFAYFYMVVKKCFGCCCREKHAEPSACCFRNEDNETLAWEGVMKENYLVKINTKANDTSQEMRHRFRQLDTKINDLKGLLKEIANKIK

For this experiment, the target named is canine TRPM8 (Canis lupus familiaris, UniProt Q1A7N1). Description: In Vitro Canine TRPM8 Functional Assay (intracellular Ca2+ fluorescence, icilin challenge). The settings on record: HEK293 cells stably expressing canine TRPM8.

Turning to `Cc1cccc2nc(N(Cc3ccc(OC(F)(F)F)cc3)S(=O)(=O)c3ccccc3)c(C)n12`, the “% Inh (%) @ 0.2 μM” value (@ 0.2 μM) was 100%. Moreover, the IC50 (read-out: TRPM8 IC50, icilin at ~80% maximal response) turned out to be 0.0104 µM.
